Earlier results as cited in article PMC4508061, “Selectivity Profiling and Biological Activity of Novel β-Carbolines as Potent and Selective DYRK1 Kinase Inhibitors” (PLoS ONE, 2015).

Chains of the proteins cited; added tags and fusions are not shown.
UniProt P49760, whole entry: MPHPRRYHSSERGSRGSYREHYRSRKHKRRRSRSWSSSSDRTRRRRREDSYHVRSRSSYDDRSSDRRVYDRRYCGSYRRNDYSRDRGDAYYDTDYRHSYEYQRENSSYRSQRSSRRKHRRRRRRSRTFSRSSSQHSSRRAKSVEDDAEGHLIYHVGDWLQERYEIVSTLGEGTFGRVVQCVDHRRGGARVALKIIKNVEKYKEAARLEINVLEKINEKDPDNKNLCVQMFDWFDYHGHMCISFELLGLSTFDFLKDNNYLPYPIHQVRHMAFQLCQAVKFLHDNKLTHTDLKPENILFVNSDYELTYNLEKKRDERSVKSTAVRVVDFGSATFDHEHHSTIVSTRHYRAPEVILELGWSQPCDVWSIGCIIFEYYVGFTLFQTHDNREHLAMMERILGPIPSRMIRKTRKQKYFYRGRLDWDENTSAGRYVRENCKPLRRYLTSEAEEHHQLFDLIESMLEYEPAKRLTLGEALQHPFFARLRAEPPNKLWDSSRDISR

Biological target: T1, CLK2 (Homo sapiens, UniProt P49760)
T1 construct: purchased ProQinase (Freiburg, Germany)
Conditions: 10 μM; cited from earlier work

For `O=C1NC(Nc2ccccc2)=N/C1=C\c1ccc2c(c1)OCO2` [L41], the “Residual activity (% of control)” value is given as 6 % of control.
